Measurements taken from patent publication US20090175786A1 (published 2009).

Protein sequences, listed by entry. Tags and fused reporters are not part of them. Lines headed by an entry give the natural chain unless they say otherwise; changes in a name come on top.
UniProt P30550: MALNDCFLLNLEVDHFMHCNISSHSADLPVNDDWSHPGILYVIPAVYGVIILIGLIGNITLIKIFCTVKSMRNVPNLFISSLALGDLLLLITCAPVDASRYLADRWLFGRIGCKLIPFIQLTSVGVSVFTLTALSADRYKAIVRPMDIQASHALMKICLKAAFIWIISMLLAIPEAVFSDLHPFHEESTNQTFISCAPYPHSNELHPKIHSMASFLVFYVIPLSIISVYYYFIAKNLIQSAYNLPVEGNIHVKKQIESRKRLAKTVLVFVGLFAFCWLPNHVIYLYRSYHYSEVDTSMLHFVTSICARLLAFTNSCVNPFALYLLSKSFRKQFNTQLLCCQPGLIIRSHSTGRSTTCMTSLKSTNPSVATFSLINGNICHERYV

T1: neuromedin-B preferring receptor (NMB-R) of C6 rodent glioblastoma cells (rodent, UniProt P24053 1-390, limits assumed)
T1 construct: whole, on cells; also called C6/NMB-R
T1 sequence (looked up): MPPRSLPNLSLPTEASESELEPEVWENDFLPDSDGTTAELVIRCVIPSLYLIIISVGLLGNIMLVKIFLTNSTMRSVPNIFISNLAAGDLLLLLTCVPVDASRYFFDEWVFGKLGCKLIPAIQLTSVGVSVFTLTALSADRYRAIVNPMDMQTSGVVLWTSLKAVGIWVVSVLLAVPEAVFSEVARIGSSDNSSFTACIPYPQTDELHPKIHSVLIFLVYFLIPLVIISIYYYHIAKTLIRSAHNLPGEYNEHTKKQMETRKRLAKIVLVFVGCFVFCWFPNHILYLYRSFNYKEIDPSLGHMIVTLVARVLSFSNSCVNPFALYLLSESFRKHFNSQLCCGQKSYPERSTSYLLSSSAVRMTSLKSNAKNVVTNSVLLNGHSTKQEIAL


Assays:
[1] = target: T2, gastrin releasing peptide receptor (GRP-R), human (human, UniProt P30550 1-384); experiment: 125I-BBN competition, PC3 cells
T2 construct: whole, on cells; also called GRP receptor; GRP-preferring receptor

[2] = target: T2, gastrin releasing peptide receptor …; experiment: 125I-BBN competition, PC3 cells; remark: listed apart in the source
[3] = target: T1, neuromedin-B preferring receptor …; experiment: 125I-NMB competition, C6 cells
[4] = target: T2, gastrin releasing peptide receptor …; experiment: 125I-BBN competition, PC3 cells; remark: listed apart in the source
[5] = target: T2, gastrin releasing peptide receptor …; experiment: 125I-BBN competition, PC3 cells; remark: listed apart in the source
[6] = target: T1, neuromedin-B preferring receptor …; experiment: 125I-NMB competition, C6 cells; remark: listed apart in the source
[7] = target: T2, gastrin releasing peptide receptor …; experiment: 125I-BBN competition, PC3 cells; remark: listed apart in the source
[8] = target: T2, gastrin releasing peptide receptor …; experiment: 125I-BBN competition, PC3 cells; remark: listed apart in the source
[9] = target: T2, gastrin releasing peptide receptor …; experiment: 125I-BBN competition, PC3 cells; remark: listed apart in the source
[10] = target: T2, gastrin releasing peptide receptor …; experiment: 125I-BBN competition, PC3 cells; remark: listed apart in the source

Binder | IC50 [6] | IC50 [8] | further results
LWAVGSFM (N-terminus: DO3A-monoamide-Gly-4-aminobenzoic acid; C-terminal amide, also called L225) [DO3A-monoamide-G-Abz4-LWAVGSFM-NH2] |  |  | IC50 [1]: 240 nM; IC50 [2]: 240 nM
YGNLWATGHFM (residue 1 is D-Tyr (y); C-terminal amide, also called neuromedin analog) [yGNLWATGHFM-NH2] |  |  | IC50 [1]: 885 nM; IC50 [3]: 0.16 nM
YQWAVAHFL (N-terminus: DO3A-monoamide-Gly-4-aminobenzoic acid; residue 1 is D-Tyr; Ala2 = beta-alanine; Nle = norleucine; C-terminal amide, also called L222; Universal agonist) [DO3A-monoamide-G-Abz4-yQWAV-Ala2-HF-Nle-NH2] |  |  | IC50 [2]: 46 nM; IC50 [4]: 46 nM
FQWAVAHFL (N-terminus: DO3A-monoamide-Gly-4-aminobenzoic acid; residue 1 printed f (D-Phe) in Table 13, Phe / L-phenylalanyl in Table 3 and paragraph 422; Ala2 = beta-alanine; Nle = norleucine; C-terminal amide, also called L223; Universal agonist) [DO3A-monoamide-G-Abz4-fQWAV-Ala2-HF-Nle-NH2] |  |  | IC50 [2]: 52 nM; IC50 [4]: 52 nM
GSCGGQWAVGHLM (residue 1 is N,N-dimethylglycine; Cys 3 S-acetamidomethyl (Acm); C-terminal amide) [N,N-dimethylglycine-Ser-Cys(Acm)-Gly-G-QWAVGHLM-NH2] |  |  | IC50 [5]: 25 nM
EQKLGNQWAVGHLM (residue 1 is pyroglutamate; Lys 3 side chain: DO3A-monoamide-Gly-4-aminobenzoic acid; C-terminal amide, also called L218) [>EQ-[K(DO3A-monoamide-G-Abz4)-LGNQWAVGHLM-NH2] |  |  | IC50 [2]: 53 nM
GSCGKKQWAVGHLM (residue 1 is N,N-dimethylglycine; Cys 3 S-acetamidomethyl (Acm); C-terminal amide) [N,N-dimethylglycine-Ser-Cys(Acm)-Gly-KK-QWAVGHLM-NH2] |  |  | IC50 [5]: 13 nM
GSCGKSQWAVGHLM (residue 1 is N,N-dimethylglycine; Cys 3 S-acetamidomethyl (Acm); C-terminal amide) [N,N-dimethylglycine-Ser-Cys(Acm)-Gly-KS-QWAVGHLM-NH2] |  |  | IC50 [5]: 7.5 nM
GSCGSKQWAVGHLM (residue 1 is N,N-dimethylglycine; Cys 3 S-acetamidomethyl (Acm); C-terminal amide) [N,N-dimethylglycine-Ser-Cys(Acm)-Gly-SK-QWAVGHLM-NH2] | 2.2 nM |  | 
QWAVGHLM (N-terminus: DO3A-monoamide-N-4-aminoethyl-N-1-piperazine-acetic acid; C-terminal amide, also called L89) [DO3A-monoamide-N-4-aminoethyl-N-1-piperazineacetic acid-BBN(7-14)] | 114 nM |  | 
QWAVGHLM (N-terminus: DO3A-monoamide-8-aminooctanoic acid; C-terminal amide, control; also called DO3A monoamide-aminooctanyl-BBN [7-14]; control) [DO3A-monoamide-Aoc-QWAVGHLM-NH2 (DO3A-monoamide-8-amino-octanoic acid-BBN (7-14))] | 3.1 nM |  | 
QWAVGHLM (N-terminus: DO3A-monoamide-Nal1-Bip (L-1-Naphthylalanine, L-Biphenylalanine); C-terminal amide) [DO3A-monoamide-Nal1-Bip-QWAVGHLM-NH2] | 211 nM |  | 
QWAVGHLM (N-terminus: DO3A-monoamide-Cha-Cha (Cha = L-Cyclohexylalanine); C-terminal amide) [DO3A-monoamide-Cha-Cha-QWAVGHLM-NH2] | 77 nM |  | 
QWAVGHLM (N-terminus: DO3A-monoamide-3-aminopropionic acid (Apa3); C-terminal amide) [DO3A-monoamide-Apa3-QWAVGHLM-NH2] | 18.9 nM |  | 
QWAVGHLM (N-terminus: DO3A-monoamide-Gly-3-methyl-4-aminobenzoic acid; C-terminal amide, also called L242) [DO3A-monoamide-Gly-3-methyl-4-aminobenzoic acid-BBN(7-14)] | 2.2 nM |  | 
GQWAVGHLM (N-terminus: DO3A-monoamide-4-aminobenzoic acid; C-terminal amide, also called L204) [DO3A-monoamide-4-aminobenzoic acid-Gly-BBN(7-14)] | 1.2 nM |  | IC50 [3]: 1.19 nM
QWAVGHFL (N-terminus: DO3A-monoamide-Gly-4-aminobenzoic acid; C-terminal amide, also called L300) [DO3A-monoamide-G-Abz4-QWAVGHFL-NH2] |  |  | IC50 [7]: 2.5 nM; IC50 [2]: 2.5 nM
GQWAVGHLM (N-terminus: N,N-dimethylglycine-Ser-Cys(Acm)-Gly-8-amino-3,6-dioxaoctanoic acid-2,3-diaminopropionic acid; C-terminal amide, same M-N-O-P-G as printed for L24, other MS; also called L59) |  | 42 nM | 
GQWAVGHLM (N-terminus: N,N-dimethylglycine-Ser-Cys(Acm)-Gly-8-amino-3,6-dioxaoctanoic acid-2,3-diaminopropionic acid; C-terminal amide, same M-N-O-P-G as printed for L59, other MS; also called L24) |  | 38 nM | 
QWAVGHLM (N-terminus: DO3A-monoamide-4-aminobutanoic acid (Abu4); C-terminal amide) [DO3A-monoamide-Abu4-QWAVGHLM-NH2] | 5.2 nM |  | 
QWAVGHLM (N-terminus: DO3A-monoamide-Gly-3′-Aminobiphenyl-3-carboxylic acid; C-terminal amide, also called L207) [DO3A-monoamide-Gly-3′-Aminobiphenyl-3-carboxylic acid-BBN(7-14)] | 15.1 nM |  | 

Binder | IC50 [6] | IC50 [8] | further results
QWAVGHLM (N-terminus: DO3A-monoamide-Nal1-Bpa4 (L-1-Naphthylalanine, 4-benzoylphenylalanine); C-terminal amide) [DO3A-monoamide-Nal1-Bpa4-QWAVGHLM-NH2] | 89.9 nM |  | 
GQWAVGHLM (N-terminus: N,N-dimethylglycine-Ser-Cys(Acm)-Gly-Arg-8-amino-3,6-dioxaoctanoic acid; C-terminal amide, also called L52) [N,N-dimethylglycine-Ser-Cys(Acm)-Gly-Arg-8-amino-3,6-dioxaoctanoic acid-Gly-BBN(7-14)] |  | 14 nM | 
FQWAVGHLL (N-terminus: DO3A-monoamide-Gly-4-aminobenzoic acid; residue 1 is D-Phe; C-terminal amide, also called L221) [DO3A-monoamide-G-Abz4-fQWAVGHLL-NH2] |  |  | IC50 [7]: 340 nM; IC50 [2]: 340 nM
SQWAVGHLM (N-terminus: N,N-dimethylglycine-Ser-Cys(Acm)-Gly-8-amino-3,6-dioxaoctanoic acid; C-terminal amide, also called L11) [N,N-dimethylglycine-Ser-Cys(Acm)-Gly-8-amino-3,6-dioxaoctanoic acid-Ser-BBN(7-14)] |  | 36 nM | 
KQWAVGHLM (N-terminus: DO3A-monoamide-trans-4-aminomethylcyclohexane-1-carboxylic acid; C-terminal amide, also called L99) [DO3A-monoamide-trans-4-aminomethylcyclohexane-1-carboxylic acid-Lys-BBN(7-14)] |  |  | IC50 [9]: 22 nM
SQWAVGHLM (N-terminus: N,N-dimethylglycine-Ser-Cys(Acm)-Gly-N-1-piperazineacetic acid; C-terminal amide, also called L34) [N,N-dimethylglycine-Ser-Cys(Acm)-Gly-N-1-piperazineacetic acid-Ser-BBN(7-14)] |  | 38 nM | 
AQWAVGHLM (N-terminus: N,N-dimethylglycine-Ser-Cys(Acm)-Gly-8-amino-3,6-dioxaoctanoic acid; residue 1 is D-Ala; C-terminal amide, also called L14) [N,N-dimethylglycine-Ser-Cys(Acm)-Gly-8-amino-3,6-dioxaoctanoic acid-Dala-BBN(7-14)] |  | 11 nM | 
FQWAVGHLM (N-terminus: DO3A-monoamide-trans-4-aminomethylcyclohexane-1-carboxylic acid; residue 1 is D-Phe; C-terminal amide, also called L95) [DO3A-monoamide-trans-4-aminomethylcyclohexane-1-carboxylic acid-D-phenylalanine-BBN(7-14)] |  |  | IC50 [9]: 14 nM
RQWAVGHLM (N-terminus: N,N-dimethylglycine-Ser-Cys(Acm)-Gly-N-4-aminoethyl-N-1-piperazineacetic acid; C-terminal amide, also called L29) [N,N-dimethylglycine-Ser-Cys(Acm)-Gly-N-4-aminoethyl-N-1-piperazineacetic acid-Arg-BBN(7-14)] |  | 36 nM | 
FQWAVGHLM (N-terminus: DO3A-monoamide-Gly-4-aminobenzoic acid; residue 1 is D-Phe; C-terminal amide, also called L214; DO3A-monoamide-G-4-aminobenzoic acid-(D)-Phe-BBN(7-14)) [DO3A-monoamide-G-Abz4-fQWAVGHLM-NH2] |  |  | IC50 [10]: 18 nM; IC50 [2]: 18 nM
RQWAVGHLM (N-terminus: N,N-dimethylglycine-Ser-Cys(Acm)-Gly-N-1-piperazineacetic acid; C-terminal amide, also called L35) [N,N-dimethylglycine-Ser-Cys(Acm)-Gly-N-1-piperazineacetic acid-Arg-BBN(7-14)] |  | 26 nM | 
KQWAVGHLM (N-terminus: N,N-dimethylglycine-Ser-Cys(Acm)-Gly-N-4-aminoethyl-N-1-piperazineacetic acid; C-terminal amide, also called L32) [N,N-dimethylglycine-Ser-Cys(Acm)-Gly-N-4-aminoethyl-N-1-piperazineacetic acid-Lys-BBN(7-14)] |  | 34 nM | 
SQWAVGHLM (N-terminus: N,N-dimethylglycine-Ser-Cys(Acm)-Gly-N-4-aminoethyl-N-1-piperazineacetic acid; C-terminal amide, also called L28) [N,N-dimethylglycine-Ser-Cys(Acm)-Gly-N-4-aminoethyl-N-1-piperazineacetic acid-Ser-BBN(7-14)] | 13 nM | 25 nM | IC50 [5]: 25 nM
GQWAVGHLM (N-terminus: N,N-dimethylglycine-Ser-Cys(Acm)-Gly-2,3-diaminopropionic acid-8-amino-3,6-dioxaoctanoic acid; C-terminal amide, same M-N-O-P-G as printed for L26, other MS; also called L61) |  | 43 nM | 
QWAVGHLM (N-terminus: N,N-dimethylglycine-Ser-Cys(Acm)-Gly-N-1-piperazineacetic acid-8-amino-3,6-dioxaoctanoic acid; C-terminal amide, also called L36) | 12.1 nM |  | 
RGQWAVGHLM (N-terminus: N,N-dimethylglycine-Ser-Cys(Acm)-Gly-8-amino-3,6-dioxaoctanoic acid; C-terminal amide, same M-N-O-P-G as printed for L57, other MS; also called L22) [N,N-dimethylglycine-Ser-Cys(Acm)-Gly-8-amino-3,6-dioxaoctanoic acid-Arg-Gly-BBN(7-14)] |  | 36 nM | 
DGQWAVGHLM (N-terminus: N,N-dimethylglycine-Ser-Cys(Acm)-Gly-8-amino-3,6-dioxaoctanoic acid; C-terminal amide, same M-N-O-P-G as printed for L55, other MS; also called L20) |  | 37 nM | 
DGQWAVGHLM (N-terminus: N,N-dimethylglycine-Ser-Cys(Acm)-Gly-8-amino-3,6-dioxaoctanoic acid; C-terminal amide, same M-N-O-P-G as printed for L20, other MS; also called L55) |  | 43 nM | 
QWAVGHLM (N-terminus: DO3A-monoamide-Gly-4′-Amino-2′-methyl biphenyl-4-carboxylic acid; C-terminal amide, also called L206) [DO3A-monoamide-Gly-4′-Amino-2′-methyl biphenyl-4-carboxylic acid-BBN(7-14)] | 1.3 nM |  | 
QWAVGHLM (N-terminus: DO3A-monoamide-Gly-4-hydrazinobenzoyl; C-terminal amide, also called L202) [DO3A-monoamide-Gly-4-hydrazinobenzoyl-BBN(7-14)] | 2.7 nM |  | 
LWATGHFM (N-terminus: DO3A-monoamide-Gly-4-aminobenzoic acid; C-terminal amide, also called L227) [DO3A-monoamide-G-Abz4-LWATGHFM-NH2] |  |  | IC50 [1]: 28 nM; IC50 [5]: 28 nM; IC50 [2]: 39 nM

Where two headings read alike, the source gives them in different places.
